The results in this text go back to patent US12115141B2, “Diagnosis of diabetes by detecting aggregated amylin in erythrocytes” (University of Kentucky Research Foundation, priority 2018, dated 2024).

The assay relates to HIP rats.

Consider `CC(=O)N1CCC(NC(=O)NC23CC4CC(CC(C4)C2)C3)CC1` [APAU], for which, where the note is “HIP rat kidneys, FIG. 32”, the “arginase expression and arginase activation” value is “variable effects”. In addition, the “amylin deposition in renal microvasculature” value (HIP-T vs HIP-UT, drinking water 10 weeks, FIG. 22E) is “lower”.
